Measured affinities in a library of Ab-14 light chain variants

The measurements come from Engelhart et al. 2022 (doi:10.1038/s41597-022-01779-4) through the FLAb antibody collection.

Target peptide (SARS-CoV-2 spike, HR2 region): PDVDLGDISGINAS

Parent scFv Ab-14: VH joined to VL by a (GGGGS)3 linker. Changes lie in the light chain CDRs alone.
VH: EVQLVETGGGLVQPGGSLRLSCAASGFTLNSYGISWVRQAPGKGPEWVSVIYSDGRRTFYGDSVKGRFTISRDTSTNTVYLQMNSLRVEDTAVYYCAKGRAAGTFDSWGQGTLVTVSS
VL: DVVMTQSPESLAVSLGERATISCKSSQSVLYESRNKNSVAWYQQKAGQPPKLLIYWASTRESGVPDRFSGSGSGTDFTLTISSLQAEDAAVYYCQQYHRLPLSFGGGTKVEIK

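Phage display of a naive human antibody library on the peptide gave the parent. AAYL50 was designed without a model: most single CDR substitutions and a random sample of double and triple ones. Affinity was read by AlphaSeq, a pooled yeast mating assay with surface-displayed partners. After mating in shaken culture at 30 °C for 16 h, diploids were selected and their barcode pairs sequenced. Scores were corrected for input abundance and mapped to Kd with protein pairs of known affinity run in the same pool. The assay was run in three technical replicates.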

Variants are written as CDR1, CDR2 and CDR3 of the light chain (limits as in the source). Parent: KSSQSVLYESRNKNSVA, WASTRES, QQYHRLPLS. Kd is apparent (estimated from mating counts) and averaged on the log scale over replicates with a signal. Smaller is tighter. An entry "nd" has no value in the source: the pair was not observed among the diploids in any replicate. This suggests poor binding but is not conclusive. In this assay the parent's reference entry averaged 4.4 nM; its copy inside this library read 48 nM. Background: pairings of library AAYL50 with three empty control strains gave a value in 18% of cases (median 15 µM, 5th percentile 970 nM). Values in that range, when seen in few replicates, are hard to tell from nonspecific mating. For each scFv, signals with the empty controls are counted beside the result.

CDR-L1 | CDR-L2 | CDR-L3 | apparent Kd | detected | empty controls
KSSQSVLYESWFKNSVA | WASTRES | QQYHRLPLS | 130 nM | 3/3 | 1/9
KSSGSVLYESRHKNWVA | WASTRES | QQYHRLPLS | 11 µM | 1/3 | 1/9
KSSQSVLYESRNKNSVA | WGSYRES | QQYHRLPLE | 70 nM | 3/3 | 1/9
KSSQSVAYESRNKNSVA | WASTREY | QQYHRLPLS | 11 nM | 3/3 | 1/9
KSSQSVNYESRNKNSVT | WASTRES | QQSHRLPLS | nd | 0/3 | 0/9
LSSQSVLYESRNKNSVY | WAMTRES | QQYHRLPLS | nd | 0/3 | 0/9
KSSMSVLYESRNKNSVL | WASMRES | QQYHRLPLS | nd | 0/3 | 0/9
KSSQSVLYESRYKNSVT | WASTRES | QQYHRWPLS | 9.7 µM | 1/3 | 1/9
KSEQSVLYESRNKNKVA | WASTRES | CQYHRLPLS | nd | 0/3 | 0/9
KSSQMVLYESRNKNSVA | WASTREE | NQYHRLPLS | 5.8 nM | 3/3 | 0/9
KSSQSVLYYSRNKNSVA | WASGRES | QQYHRLPLS | 970 µM | 1/3 | 6/9
ESSQSVLYESRNKNSMA | WAMTRES | QQYHRLPLS | nd | 0/3 | 0/9
KSSQSVLYESRHKNSVA | WALYRES | QQYHRLPLS | 18 µM | 2/3 | 2/9
KMSQSVLYESRNKNSVA | WASTRES | QQYHREALS | nd | 0/3 | 2/9
KESQKVLYEPRNKNSVA | WASTRES | QQYHRLPLS | 13 nM | 3/3 | 0/9
KSSQSVLYESRNKNSVA | WAATRQS | QAYHRLPLS | 10 µM | 3/3 | 2/9
KDSQSVLYEHRNKNSVA | WASTRES | QWYHRLPLS | 4.1 µM | 2/3 | 2/9
KSSQSVLYVSRNKNSVA | WAETRES | QQYHRLPLP | 360 nM | 3/3 | 1/9
KSPQSVLYESRNKNSVQ | WASTRES | QQYVRLPLS | nd | 0/3 | 0/9
KSSQSVLYESRNKNSVA | WAMCRES | QWYHRLPLS | nd | 0/3 | 0/9
KSCQSVHYESRNKNSMA | WASTRES | QQYHRLPLS | 3.3 µM | 3/3 | 0/9
FSSQLVLYESCNKNSVA | WASTRES | QQYHRLPLS | 1.5 µM | 3/3 | 1/9
KSSSSVLYCSRNKNSVA | CASTRES | QQYHRLPLS | nd | 0/3 | 0/9
KHSQSVLYFSRNKNSVV | WASTRES | QQYHRLPLS | nd | 0/3 | 0/9

The remaining entries, values ahead:

apparent Kd | detected | empty controls | CDR-L1 | CDR-L2 | CDR-L3
29 nM | 1/3 | 0/9 | KWSQSVLYESRNKNSVA | WESTREL | QQYHRLPLS
4.6 µM | 3/3 | 2/9 | TSSQSVLYESYNKVSVA | WASTRES | QQYHRLPLS
5.3 µM | 1/3 | 0/9 | MSSQSKLYESRNKNSVA | WASTRES | QQSHRLPLS
7.9 µM | 2/3 | 4/9 | KSSQSVLYESRNKNSVI | AASTRES | QQYHRFPLS
76 nM | 3/3 | 2/9 | NTSQSVLYESRNKNSVA | WASTRES | QQFHRLPLS
nd | 0/3 | 1/9 | KSSQSVLYESRNKNSVA | VASYRES | QQWHRLPLS
8.0 µM | 3/3 | 2/9 | KSSQSVLYESRNKNSVA | WPWTREP | QQYHRLPLS
3.7 nM | 3/3 | 3/9 | KSSGSVPYESRNKNSVA | WASTRES | QQYHRLPLS
470 nM | 3/3 | 1/9 | KQEQSVLYEVRNKNSVA | WASTRES | QQYHRLPLS
nd | 0/3 | 0/9 | TSSQSVLYISRNKNSVA | WASTRES | QQYHRYPLS
32 nM | 3/3 | 2/9 | KSSQSVLYESRYKNSVA | WASTREH | QQYHRLPLV
61 nM | 3/3 | 2/9 | KSWQSQLYESRNKNSVA | WWSTRES | QQYHRLPLS
6.4 nM | 3/3 | 6/9 | KQSQSVLPESRNKNSVA | WASTRES | QQYHRLPCS
9.3 µM | 2/3 | 0/9 | KSSQSVLYESRNKNHVA | WASTRES | QQHSRLPLS
62 nM | 3/3 | 0/9 | KSSQSVLYEPRNKNSVA | WASTRNS | QQYHRLPKS
nd | 0/3 | 0/9 | KSSQSVLYEGRNKNSVV | WASTRES | QQYHRTPLS
nd | 0/3 | 3/9 | KSSQSVLYESRNKNSVA | WASAHES | QQYHYLPLS
nd | 0/3 | 3/9 | KSSQSVLYESRNKNSVA | WASTRES | NQYHRLPVG
7.5 nM | 3/3 | 1/9 | KSSPSVTYESRNKNNVA | WASTRES | QQYHRLPLS
nd | 0/3 | 0/9 | KSSQSVWYESRNKASVA | WASTRES | QQYHRLPCS
200 nM | 3/3 | 2/9 | KSSCSVLYPMRNKNSVA | WASTRES | QQYHRLPLS
nd | 0/3 | 0/9 | KSSQSVLYESRNKNSVF | WASGRES | QQYHRLPLV
400 nM | 3/3 | 0/9 | KSDQSVMYEIRNKNSVA | WASTRES | QQYHRLPLS
nd | 0/3 | 1/9 | ESSQSVLYHSRNKNSVA | WASTRES | QQYHRLPAS

Picked from the list: the 3 lowest averages where every replicate gave a value.

| CDR-L1 | CDR-L2 | CDR-L3 | apparent Kd | detected | empty controls |
|---|---|---|---|---|---|
| KSSGSVPYESRNKNSVA | WASTRES | QQYHRLPLS | 3.7 nM | 3/3 | 3/9 |
| KSSQMVLYESRNKNSVA | WASTREE | NQYHRLPLS | 5.8 nM | 3/3 | 0/9 |
| KQSQSVLPESRNKNSVA | WASTRES | QQYHRLPCS | 6.4 nM | 3/3 | 6/9 |